{
  "source": "patent US10512665B2",
  "about": "“Methods and compositions related to inhibition of viral entry” (University of Utah Research Foundation, priority 2007, dated 2019)",
  "experiment": "Toxicity observed in the viral infectivity assay",
  "assay_type": "cell-based",
  "conditions": "up to 100 μM; quenched by reaction with Tris",
  "procedure": "To control for possible non-specific effects of the PEG moiety, mono(NHS-ester)PEG was reacted with PIE7 to generate PEG-PIE7. […] Therefore, the improved potency of the dimers cannot be attributed to an interaction of the PEG with virus, cells, or the D-peptide, but is a genuine avidity effect caused by two D-peptides binding to the N-trimer. As a final control, the crosslinking reagent itself (quenched by reaction with Tris) is non-toxic up to 100 μM in this assay.\nAll studies were done using the HXB2 strain unless otherwise specified. Viral infectivity was measured essentially as previously described (Hamburger 2005) with several modifications. 8 μg/mL DEAE-Dextran was used as a fusion enhancer in all assays. Media was changed 22-26 h following infection. IC50 values were calculated by fitting normalized data to the following equation: y=1/(1+[inhibitor]/IC50). Fits were weighted by the absolute s.e.m. from quadruplicate points with the minimum allowable error set to 1%.",
  "data": [
    {"substance": "Bis-dPEG9™ NHS ester [crosslinking reagent]", "values": [
      {"measurement": "Toxicity", "value": "non-toxic"}
    ]}
  ]
}
